Results as given in patent US9649269B2, “Use of glycosaminoglycan lipoate esters in the trichology field” (SIGEA S.R.L., priority 2010, dated 2017).

System: "endo" bovine testicular hyaluronidase
Settings: 1.0% w/w in acetate buffer, enzyme/polymer ratio 1:200, 37° C.

Substance: Lipoic and Formic Ester of Hyaluronic Acid Sodium Salt [Example 1]
- resistance to enzymatic degradation: resists the enzymatic action longer than native HA
